Measurements: paper PMC10485906, “Development of a Dihydroquinoline–Pyrazoline GluN2C/2D-Selective Negative Allosteric Modulator of the N-Methyl-D-aspartate Receptor” (ACS Chemical Neuroscience, 2023)

Protein sequences, listed by entry. Tags and fused reporters are not part of them. Residues count along the entry.
UniProt Q62645, 28-1323 limits assumed: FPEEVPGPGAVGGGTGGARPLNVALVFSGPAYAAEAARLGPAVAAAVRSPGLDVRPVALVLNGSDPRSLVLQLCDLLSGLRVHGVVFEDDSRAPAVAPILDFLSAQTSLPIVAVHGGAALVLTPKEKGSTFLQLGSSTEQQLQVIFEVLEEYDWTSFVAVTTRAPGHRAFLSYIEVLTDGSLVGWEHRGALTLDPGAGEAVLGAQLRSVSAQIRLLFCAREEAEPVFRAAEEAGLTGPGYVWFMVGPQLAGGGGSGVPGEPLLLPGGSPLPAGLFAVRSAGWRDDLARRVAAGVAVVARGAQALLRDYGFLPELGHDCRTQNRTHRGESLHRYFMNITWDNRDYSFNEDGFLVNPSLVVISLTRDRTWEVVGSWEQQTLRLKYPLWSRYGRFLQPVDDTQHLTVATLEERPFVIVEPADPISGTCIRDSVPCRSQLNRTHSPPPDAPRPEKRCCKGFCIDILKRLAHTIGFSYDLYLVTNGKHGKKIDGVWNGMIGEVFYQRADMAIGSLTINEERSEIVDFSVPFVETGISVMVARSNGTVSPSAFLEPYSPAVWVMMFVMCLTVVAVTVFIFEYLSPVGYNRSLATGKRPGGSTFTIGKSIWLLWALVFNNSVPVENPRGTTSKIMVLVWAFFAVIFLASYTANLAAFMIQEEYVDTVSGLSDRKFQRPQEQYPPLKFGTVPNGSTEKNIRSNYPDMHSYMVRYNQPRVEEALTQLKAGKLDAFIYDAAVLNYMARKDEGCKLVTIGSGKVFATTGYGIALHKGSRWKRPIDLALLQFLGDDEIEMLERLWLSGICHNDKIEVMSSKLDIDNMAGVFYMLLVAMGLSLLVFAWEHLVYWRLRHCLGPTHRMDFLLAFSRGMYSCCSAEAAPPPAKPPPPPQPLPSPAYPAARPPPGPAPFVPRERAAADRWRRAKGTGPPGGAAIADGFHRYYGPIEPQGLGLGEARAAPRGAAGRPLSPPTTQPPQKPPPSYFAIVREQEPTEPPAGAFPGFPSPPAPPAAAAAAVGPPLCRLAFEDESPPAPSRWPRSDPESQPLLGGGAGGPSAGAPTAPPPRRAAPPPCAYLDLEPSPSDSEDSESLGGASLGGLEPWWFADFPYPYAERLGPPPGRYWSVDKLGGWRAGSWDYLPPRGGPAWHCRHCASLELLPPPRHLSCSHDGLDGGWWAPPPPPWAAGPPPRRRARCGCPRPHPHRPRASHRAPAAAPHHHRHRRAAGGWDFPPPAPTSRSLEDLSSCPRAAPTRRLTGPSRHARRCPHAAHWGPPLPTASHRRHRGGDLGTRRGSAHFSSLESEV

Molecular target: GluN1/GluN2D (Rattus norvegicus, UniProt Q62645)
Test: Whole-cell voltage-clamp recordings, HEK cells, GluN1/GluN2D (agonist dependence)

τdeactivation following glutamate removal (0.03 μM compound, mean ± SEM): 7.3 ± 0.6 s
τdeactivation following glutamate removal (0.1 μM compound, mean ± SEM): 5.6 ± 0.8 s
τdeactivation following glutamate removal (1 μM compound, mean ± SEM): 9.2 ± 0.5 s
τdeactivation following glutamate removal (3 μM compound, mean ± SEM): 9.2 ± 0.5 s
Kd (inhibitor preapplied, from kON and kOFF, supplement): 0.2 µM
kOFF (inhibitor preapplied, linear regression of 1/τinhibition vs concentration): 0.11 s^–1
fold-change in IC50 for the peak and steady-state current responses (mean ± SEM, compared by ANOVA): 3.9 ± 0.3
IC50 fold higher during peak compared to steady-state (ratio of IC50 values): 4 fold
IC50 (read-out: IC50 peak (95% CI), peak current response to glutamate, inhibitor preapplied): 2.1 µM
IC50 (read-out: IC50 pulse 1 (95% CI), first of 5 brief NMDA (500 μM)/glycine (250 μM) pulses at 1 s intervals): 1.8 µM
IC50 (read-out: IC50 pulse 5 (95% CI), fifth of 5 brief NMDA (500 μM)/glycine (250 μM) pulses at 1 s intervals): 0.49 µM
IC50 (read-out: IC50 steady-state (95% CI), steady-state current response to glutamate, inhibitor preapplied): 0.51 µM
IC50 fold higher at first pulse compared to fifth pulse (trains of brief agonist applications): 2.4 fold
SMILES: O=C(O)CCC(=O)N1N=C(c2c(-c3ccc(Cl)cc3)c3ccccc3[nH]c2=O)C[C@H]1c1ccc(Cl)cc1

Where two headings read alike, the source gives them in different places.
